One experiment addresses Human BACE-1 (Homo sapiens (Human), UniProt P56817). In words: Test 1: Inhibition of Human BACE-1. The class given is biochemical. To be noted: recombinant BACE-1, pH 4.5, 1 hour preincubation. As to the method: Test 1: Inhibition of Human BACE-1
(§1) Recombinant BACE-1 (extracellular domain, expressed in baculovirus and purified using standard methods) at 0.1 to 1 nM concentrations is incubated with the test compound at various concentrations for 1 hour at room temperature in 100 mM acetate buffer, pH 4.5, containing 0.1% CHAPS. Activity was measured using a final concentration of 3 μM of the fluorescence-quenched substrate Q-C(HSO3)-Ile-Asp-Leu-Ala-Val-Leu-Asp-HN—CH2—CH2-Mca, where Q=2-nitro-5-amino benzoic acid and Mca=7-methoxy-4-coumarinyl acetic acid. Catalytic turnover was monitored in a Spectramax Gemini fluorescence plate reader (Molecular Devices) in black 96-well microplates using excitation/emission wavelength of 325 nm and 400 nm, respectively. Fluorescence increase was followed for 15 min, in 1 minute's intervals. The fluorescence/time slopes were calculated from duplicate wells and from wells without inhibitor and the IC50 values were calculated using a logistic 4-parameter model.

By UniProt entry, the sequences of proteins in these tests, tags left out. Residues count along the entry.
UniProt P56817, 46-457: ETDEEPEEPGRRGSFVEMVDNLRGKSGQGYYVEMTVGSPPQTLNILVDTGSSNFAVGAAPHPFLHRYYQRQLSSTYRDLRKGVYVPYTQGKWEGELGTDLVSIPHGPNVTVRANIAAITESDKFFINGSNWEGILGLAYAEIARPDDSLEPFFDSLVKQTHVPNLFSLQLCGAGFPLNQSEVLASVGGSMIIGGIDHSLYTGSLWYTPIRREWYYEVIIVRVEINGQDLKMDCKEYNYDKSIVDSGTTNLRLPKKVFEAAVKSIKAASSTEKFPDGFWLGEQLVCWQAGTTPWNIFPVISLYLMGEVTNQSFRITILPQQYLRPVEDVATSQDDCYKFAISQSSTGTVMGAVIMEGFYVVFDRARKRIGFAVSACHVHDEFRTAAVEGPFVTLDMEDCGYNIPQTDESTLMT
UniProt Q9Y5Z0, 63-473: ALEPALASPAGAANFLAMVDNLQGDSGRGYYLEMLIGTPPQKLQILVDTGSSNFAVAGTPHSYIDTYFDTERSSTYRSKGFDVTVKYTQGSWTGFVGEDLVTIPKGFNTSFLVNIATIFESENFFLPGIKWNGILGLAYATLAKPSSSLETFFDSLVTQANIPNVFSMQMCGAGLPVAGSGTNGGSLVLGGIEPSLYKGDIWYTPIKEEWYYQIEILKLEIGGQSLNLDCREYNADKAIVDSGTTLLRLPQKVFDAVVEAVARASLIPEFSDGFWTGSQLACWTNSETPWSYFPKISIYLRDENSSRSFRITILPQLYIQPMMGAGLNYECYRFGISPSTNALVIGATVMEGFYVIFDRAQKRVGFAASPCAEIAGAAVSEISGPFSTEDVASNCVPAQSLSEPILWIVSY

The target in another experiment is Human BACE-2 (Homo sapiens (Human), UniProt Q9Y5Z0). The experiment is described as follows: Test 2: Inhibition of Human BACE-2. The class given is biochemical. As to conditions: recombinant BACE-2, pH 4.5, 1 hour preincubation. On the procedure: Test 2: Inhibition of Human BACE-2
as §1, with “BACE-2” for “BACE-1”

The source of these data is patent US9163011B2, “Oxazine derivatives and their use in the treatment of disease” (NOVARTIS AG, priority 2011, dated 2015).

A value given as a limit tells only on which side of the number the result lay.

As a reminder, the IC50 is the midpoint of a concentration-inhibition curve. As for `COCC[C@]1(c2nc(NC(=O)c3ncc(C#N)cc3C)ccc2F)N=C(N)OCC1(F)F` [Example 4, 5-Cyano-3-methyl-pyridine-2-carboxylic acid {6-[(R)-2-amino-5,5-difluoro-4-(2-methoxy-ethyl)-5,6-dihydro-4H-[1,3]oxazin-4-yl]-5-fluoro-pyridin-2-yl}-amide], the IC50 at Human BACE-1 turned out to be 100 nM; on Human BACE-2, 580 nM. Turning to `COCC[C@@]1(c2nc(NC(=O)c3ncc(C#N)cc3C)ccc2F)N=C(N)OCC1(F)F` [Example 5], the IC50 at Human BACE-1 and on Human BACE-2 was greater than 10000 nM each time. As to `C[C@]1(c2nc(NC(=O)c3ncc(C(F)(F)F)cc3Cl)ccc2F)N=C(N)OCC1(F)F` [Example 7, 3-Chloro-5-trifluoromethyl-pyridine-2-carboxylic acid [6-((R)-2-amino-5,5-difluoro-4-methyl-5,6-dihydro-4H-[1,3]oxazin-4-yl)-5-fluoro-pyridin-2-yl]-amide], the IC50 at Human BACE-1 turned out to be 35 nM.
